Results on 1 compound are retold here after publication PMC9444296 (Investigative Radiology, 2022).

Amino acid sequences for entries named in this document (tags omitted).
UniProt P05177, whole entry: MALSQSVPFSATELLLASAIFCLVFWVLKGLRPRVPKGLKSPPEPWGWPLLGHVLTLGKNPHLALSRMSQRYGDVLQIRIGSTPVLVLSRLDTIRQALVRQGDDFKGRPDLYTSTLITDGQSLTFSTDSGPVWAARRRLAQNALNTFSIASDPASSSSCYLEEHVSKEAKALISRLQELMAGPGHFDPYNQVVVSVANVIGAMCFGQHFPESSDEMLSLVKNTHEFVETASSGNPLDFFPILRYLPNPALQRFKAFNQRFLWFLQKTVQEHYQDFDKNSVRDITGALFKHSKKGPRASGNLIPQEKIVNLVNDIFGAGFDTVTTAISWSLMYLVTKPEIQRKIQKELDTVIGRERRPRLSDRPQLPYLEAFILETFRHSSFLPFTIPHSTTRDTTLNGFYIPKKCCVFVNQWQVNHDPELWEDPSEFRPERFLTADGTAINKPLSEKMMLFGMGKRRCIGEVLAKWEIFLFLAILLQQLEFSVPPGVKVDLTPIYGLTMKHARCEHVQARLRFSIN

SMILES strings stand for the structures.

The data set concerns the target CYP1A2 (Homo sapiens, UniProt P05177). To be noted: CYP1A2, positive control selective inhibitor, human liver microsomes. A general note: Liver microsomes are a subcellular fraction often used to study metabolism.

Turning to `O=c1cc(-c2ccccc2)oc2c1ccc1ccccc12` [α-naphthoflavone, reference compound], the “enzyme activity decreased by” value was 74.8%.
